According to patent US6451785B1, “Beta lactams as antiproliferative agents” (SmithKline Beecham Corporation, priority 1997, dated 2002):

System: CoA-IT
Test: CoA-IT activity assay in U937 cell microsomes
Assay type: biochemical
Conditions: at concentrations up to 500 μM
Source text: The following is a method to measure CoA-IT activity and the effects of compounds on CoA-IT activity. The assay is based upon mixing cellular material containing CoA-IT activity with a stable lyso phospholipid such as […] and measuring the production of phospholipid product such as […] occurring in the absence of added CoA or CoA-fatty acids.
Any inflammatory cell that contains high levels of CoA-IT activity can be used, such as neutrophils, macrophages or cell lines such as U937 cells. U937 cells were obtained from American Type Culture Collection and grown in RPMI-1640 media (Gibco, Grand Island, N.Y.) supplemented with 10% fetal bovine serum (Hyclone, Logan, UT) at 37° C., 5% CO2. Cells were grown without differentiation (basal state) by any agent, such as dimethyl sulfoxide. […]
CoA-II activity was measured in 1.5 ml centrifuge tubes in a total volume of 100 ul. […] An aliquot of the chloroform-extracted materials were separated, usually by TLC in chloroform/methanol/acetic acid/water (50:25:8:4, v/v), visualized by radioscanning (Bioscan) and the product, [3H]1-alkyl-2-acyl-GPC, was scraped and quantified by liquid scintillation spectroscopy. […]
Protein concentration were assessed using the protein assay reagents from Bio Rad (Richmond, Calif.).

Structure (SMILES): O=C(O)Cc1ccccc1Nc1c(Cl)cccc1Cl [Sodium diclofenac]
- effect on CoA-IT activity: no effect
